Source: PubChem BioAssay
Nrf2 inh – Nrf2 pathway inhibition | AID 504444 | Potency, µM (doses to about 46 µM), without a hit: top-dose activity change, negative = inhibition, hits mostly inhibitors | A549 ARE-Fluc reporter, luciferase luminescence, 18-24 h | actives 2.1% (n = 360,000); also: potency is read from the fitted curve at half-maximal effect; % is scaled to controls: 0 for no effect and ±100 for the full control effect; nearly all actives have a fitted effect of over 60% in size
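Two sequential reads on A549 ARE_Fluc cells exposed to compound for 18-24 h: a CellTiter-Fluor fluorescence read for viability, then a luciferase luminescence read for Nrf2/ARE activity.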
miR-21 FLuc – raises the signal of a miR-21 reporter; HeLa miR-21 FLuc reporter, luciferase, 48 h; Potency, µM (top dose mostly 38.3 µM), for inactives: at the highest dose reporter change, positive = more light; AID 2288; 340,000 tested, under 10 active; active = well fitted rising curve with a large enough effect; inconclusive = small, poorly fitted or top-dose-only effect; inactive = no such curve, though single readings can be large or run the other way;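 note: % of control where 0% means no effect; miR-21 action dims this reporter so a rising signal means less miR-21 action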
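HeLa miR-21-FLuc reporter line, endogenous miR-21; 2000 cells/well in DMEM/10% FBS; compound titration up to ~40uM final, 48 h, 37 degree Celsius; luciferase detection reagent, 15 min lysis, CCD luminescence.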
B2AR arrestin – recruits beta-arrestin to the human beta2-adrenergic receptor; P07550; beta-arrestin recruitment to beta2AR, cell-based reporter; Potency, µM (titrated, usually from 46.1 µM), without a hit: top-dose activation, usual class: activators; actives 0.02% (n = 330,000); AID 492947;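 also: potency is read from the fitted curve at half-maximal effect; 0% = DMSO controls and full agonism = EC100 isoproterenol or metaproterenol; nearly all actives have a fitted effect of over 65% in size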
A549 tox-1 – kills or reduces viability of A549 cells in Nrf2 counter-screen; A549 ARE-Fluc cells, CellTiter-Fluor viability, 18-24 h; Potency, µM (series often up to 46 µM), without a hit: at the highest dose activity change, negative = cytotoxicity, usual class: inhibitors; actives 0.16% (n = 390,000); AID 504648; also: potency is read from the fitted curve at half-maximal effect; % is scaled to controls: 0 for no effect and ±100 for the full control effect
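Cytotoxicity counterscreen: CellTiter-Fluor fluorescence was measured in A549 ARE_Fluc cells after 18-24 h of compound exposure in a concentration series. The subsequent BugLite luminescent read reports ARE-luciferase activity.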
Nrf2 ARE act – Nrf2 pathway activation | Potency, µM (highest dose often 46.1 µM), without a hit: at the highest dose activation, most hits filed as activators | actives 0.31% (n = 410,000) | AREc32 ARE-luciferase reporter (MCF7-derived line), luminescence, 24 h | AID 624171; also: potency is read from the fitted curve at half-maximal effect; % of control where 0% means no effect; nearly all actives have a fitted effect of over 65% in size
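Quantitative high-throughput format: AREc32 reporter cells, 1000 per well, received compound by pin transfer and were incubated 24 hr at 37 deg C, 5% CO2, before Steady-Glo luminescence detection.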
FLuc counter 3 – blocks purified firefly luciferase in Nrf2 counterscreen. shares compounds with Nrf2 inh. purified firefly luciferase, luminescence inhibition. Potency, µM (doses to about 57.5 µM), for the others: at the highest dose activity change, negative = inhibition, actives largely listed as inhibitors. actives 4% (n = 1,400); also: potency is read from the fitted curve at half-maximal effect; % is scaled to controls: 0 for no effect and ±100 for the full control effect; nearly all actives have a fitted effect of over 65% in size
A549 tox-2 – counter-screen for Nrf2 inhibitors: cytotoxicity in A549 ARE cells | shares compounds with Nrf2 inh | A549 ARE-Fluc cells, cytotoxicity counterscreen | Potency, µM (top dose mostly 46.1 µM), for inactives: at the top dose activity change, negative = cytotoxicity, actives largely listed as inhibitors | actives 2% (n = 1,400);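 also: potency is read from the fitted curve at half-maximal effect; cells exposed to compounds for 18 to 24 hours; % is scaled to controls: 0 for no effect and ±100 for the full control effect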
Nrf2 ARE inh – Nrf2 inhibition confirmed, A549 ARE-luciferase | A549 ARE-firefly luciferase reporter, luminescence | shares compounds with Nrf2 inh | Potency, µM (top dose mostly 46.1 µM), inactives show top-dose activity change, negative = inhibition, hits mostly inhibitors | actives 74% (n = 1,400); also: potency is read from the fitted curve at half-maximal effect; % is scaled to controls: 0 for no effect and ±100 for the full control effect; nearly all actives have a fitted effect of over 65% in size
The depositor's hits bear a star; ? = inconclusive; . = no result given. Compounds with a hit are over-represented: about 2.2% of the library has one in this group of screens. Unless noted, calls follow the shape of the dose curve; as a rule, active = well fitted curve in the direction sought with a large enough effect; inconclusive = small, poorly fitted or top-dose-only effect, or another doubt; inactive = no such curve, though single readings can be large; an effect the other way counts as inactive or inconclusive.

Codes – A = Nrf2 inh; B = miR-21 FLuc; C = B2AR arrestin; D = A549 tox-1; E = Nrf2 ARE act; F = FLuc counter 3; G = A549 tox-2; H = Nrf2 ARE inh
COc1ccc(CC2C(=O)NC(C)C(=O)N(C)C3C(=O)N(C)C(Cc4ccc(O)c(c4)Oc4ccc(cc4)C3O)C(=O)NC(C)C(=O)NC(C)C(=O)N2C)cc1 (centres undefined)
  A = 1.3µM* | B = . | C = . | D = ? | E = -2% | F = 3% | G = ? | H = 0.41µM*

COc1cc([C@@H]2c3cc4c(cc3[C@@H](O)C3COC(=O)C32)OCO4)cc(OC)c1O (some centres undefined)
  A = ? | B = . | C = . | D = -10% | E = . | F = . | G = . | H = .

O=C(Nc1ccc(OC(=O)N2CCCCC2)cc1)N1CCOCC1
  A = 9.2µM* | B = -14% | C = 0% | D = -3% | E = -3% | F = -10% | G = -5% | H = 5.2µM*

O=C(Nc1ccc(OC(=O)N2CCCC2)cc1)N1CCOCC1
  A = 5% | B = 1% | C = -1% | D = 3% | E = 0% | F = . | G = . | H = .

O=C(Nc1ccc(Cl)c(C(F)(F)F)c1)NC1CC2CCCC(C1)N2Cc1ccccc1 (centres undefined)
  A = -24% | B = ? | C = 0% | D = -15% | E = -2% | F = . | G = . | H = .

Cc1ccc2c(C)c3ccc4ccccc4c3c[n+]2c1
  A = 2.6µM* | B = . | C = . | D = ? | E = -2% | F = -1% | G = -29% | H = 5.8µM*

O=C(O)c1ccccc1NS(=O)(=O)c1cccc(N=Nc2c(O)[nH]c(=S)[nH]c2=O)c1
  A = -13% | B = . | C = 0% | D = ? | E = 0% | F = . | G = . | H = .

CNC(=O)Nc1ccc(C(=O)N/N=C\C23CC[C@@H](O)CC2(O)CC[C@@H]2[C@@H]3CCC3(C)C(C4=CC(=O)OC4)CCC23O)cc1 (some centres undefined)
  A = ? | B = ? | C = 0% | D = -16% | E = -1% | F = . | G = . | H = .

CC1OC(O[C@H]2C[C@@H](O)[C@]3(CO)[C@H]4[C@H](O)C[C@]5(C)[C@@H](C6=CC(=O)OC6)CC[C@]5(O)[C@@H]4CC[C@]3(O)C2)C(O)C(O)C1O (some centres undefined)
  A = . | B = . | C = . | D = . | E = . | F = 4% | G = ? | H = 0.037µM*

C[C@@H]1O[C@@H](O[C@H]2C[C@@H](O)[C@]3(CO)[C@@H]4C(CC[C@]3(O)C2)[C@@]2(O)CC[C@H](C3COC(=O)C3)[C@@]2(C)C[C@H]4O)[C@H](O)[C@H](O)[C@H]1O (some centres undefined)
  A = 0.21µM* | B = . | C = 0% | D = ? | E = -2% | F = 0% | G = ? | H = 1.2µM*

C[C@H]1CC[C@@H]2[C@@H](C)[C@H]3[C@H](C[C@H]4[C@@H]5CC=C6C[C@@H](O[C@@H]7O[C@H](CO)[C@H](O)[C@H](O[C@@H]8O[C@H](CO)[C@@H](O)[C@H](O)[C@H]8O)[C@H]7O[C@@H]7O[C@@H](C)[C@H](O)[C@@H](O)[C@H]7O)CC[C@]6(C)[C@H]5CC[C@]34C)N2C1
  A = -22% | B = 5% | C = 0% | D = -18% | E = -3% | F = . | G = . | H = .

COC1C(O)C(C)OC(OC2CCC3(C)C(CCC4C3C(O)CC3(C)C(C5=CC(=O)OC5)CCC43O)C2)C1O (centres undefined)
  A = 0.15µM* | B = . | C = . | D = ? | E = -2% | F = 1% | G = ? | H = 0.12µM*

CC[C@@]1(O)C(=O)OCc2c1cc1n(c2=O)Cc2cc3c(N)cccc3nc2-1
  A = 0.65µM* | B = ? | C = -1% | D = ? | E = -3% | F = -9% | G = ? | H = 0.26µM*

COC(=O)C1=C(c2cccc(OCc3ccccc3)c2)C[C@@H]2CC[C@H]1N2C(=O)NCc1cc(C)oc1C(F)(F)F
  A = ? | B = . | C = 0% | D = -11% | E = 3% | F = 3% | G = -17% | H = ?

Gathered by group, those above with fluorine.
Codes – A = Nrf2 inh; B = miR-21 FLuc; C = B2AR arrestin; D = A549 tox-1; E = Nrf2 ARE act; F = FLuc counter 3; G = A549 tox-2; H = Nrf2 ARE inh
O=C(Nc1ccc(Cl)c(C(F)(F)F)c1)NC1CC2CCCC(C1)N2Cc1ccccc1 (centres undefined)
  A = -24% | B = ? | C = 0% | D = -15% | E = -2% | F = . | G = . | H = .

COC(=O)C1=C(c2cccc(OCc3ccccc3)c2)C[C@@H]2CC[C@H]1N2C(=O)NCc1cc(C)oc1C(F)(F)F
  A = ? | B = . | C = 0% | D = -11% | E = 3% | F = 3% | G = -17% | H = ?
